Laboratory results reported in patent publication US8980311B2, “Liposome-mediated ligation” (University of Georgia Research Foundation, Inc., priority 2006, dated 2015).

Conditions: phosphate buffer containing 6 M guanidinium-hydrochloride

C (Acm)YAFKYARHANVGRNAFELFLGCOSBn [Compound 2]
solubility: poor solubility
